Experimental data from patent US7964376B2, “Chimeric proteins and their use in methods to screen for sweet taste modulators” (Givaudan SA, priority 2006, dated 2011).

Tested on: G16gust44 (NEG. CONTROL)
Conditions: normalized increase in fluorescence over baseline, mean of three replicates; p-ETBZ 100 microM, NDHC 1 mM, NarDHC 1 mM, Cyclamate 5 mM

| Structure (SMILES) | G16gust44 (NEG. CONTROL) AVG (dF/F) |
| --- | --- |
| CCOc1ccc(C=O)cc1 [p-ETBZ] | 0.16 dF/F |
| COc1ccc(CCC(=O)c2c(O)cc(O[C@@H]3O[C@H](CO)[C@@H](O)[C@H](O)[C@H]3O[C@@H]3O[C@@H](C)[C@H](O)[C@@H](O)[C@H]3O)cc2O)cc1O [NDHC, Neohesperidin Dihydrochalcone] | 0.23 dF/F |
